# In patent US4628047A (priority 1982, dated 1986):
# System: Hodgkin's disease (nodular sclerosis)
# Conditions: diltiazem 180 mg per day, divided in three, 4 days
structure (smiles),measurement,value
"COc1ccc([C@@H]2Sc3ccccc3N(CCN(C)C)C(=O)[C@@H]2OC(C)=O)cc1 [Diltiazem, d-3-acetoxy-cis-2,3-dihydro-5-[2-(dimethylamino)ethyl]-2-(p-methoxyphenyl)-1,5-benzothiazepin-4(5H)-one]",reduction of the re-enlarged lymphadenoma,it was reduced
